# Data: patent US20220168430A1, “THERAPEUTIC METHODS FOR TREATING HEPATITIS B” (priority 2019, published 2022)
# What was measured:
# [1] = system: HBV rcDNA; test: microbe, parasite or virus in culture; assay type: cell-based, HBV genotype D, serotype ayw; HepG 2.2.15; details: Hepatitis B virus, HepG2.2.15; Cmpd 2 0.00008 μM; TDF 0 μM; Cmpd 1 by row r27-r32: 0.405, 0.135, 0.045, 0.015, 0.005, 0 μM; read-out: ADDITIVE INHIBITION
# Procedure: In vitro triple agent combination studies were conducted using the method of Prichard and Shipman 1990 (Prichard M N, Shipman C, Jr. 1990. Antiviral Res 14:181-205). The HepG 2.2.15 cell line was derived from HepG2 cells with constitutive expression of HBV (genotype D, serotype ayw) (Sells M A, Chen M L, Acs G. 1987. Proc Natl Acad Sci USA 84:1005-9). […] The plates were incubated for 7 days in a humidified incubator at 37° C. and 5% CO2. The level of rcDNA present in the culture supernatants was measured using a Quantigene 2.0 bDNA assay kit (Affymetrix, Santa Clara, Calif.) with HBV specific custom probe set (genotype D ayw) and according to the manufacturer's instructions and read using a luminescence plate reader and the relative luminescence units (RLU) data generated from each well was calculated as % inhibition of the untreated control wells and analyzed using the MacSynergy II program to determine whether the combinations were synergistic, additive or antagonistic using the interpretive guidelines established by Prichard and Shipman (Prichard M N, Shipman C, Jr. 1990. […] Concurrently, in each experiment, the effect of inhibitor combinations on cell viability was assessed in triplicates that were used to determine the ATP content as a measure of cell viability using the Cell-Titer Glo reagent (Promega, Madison, Wis.) as per the manufacturer's instructions.
# [2] = system: HBV DNA; test: HBV DNA by branched DNA assay in HepG2.2.15 cells, two-compound combinations (Examples 13-14); assay type: cell-based, HBV; HepG2.2.15 (human hepatoblastoma); details: TAF 0 μM; Cmpd 2 μM: 0.01, 0.0032, 0.001, 0.0003, 0.0001, 0; n = 4
# Procedure: In vitro combination studies were conducted using the method of Prichard and Shipman (Prichard M N, and Shipman C Jr., Antiviral Research, 1990, 14(4-5), 181-205; and Prichard M N, et. al., MacSynergy II). The HepG2.2.15 cell culture system is a cell line derived from human hepatoblastoma HepG2 cells, which have been stably transfected with the adw2-subtype HBV genome as previously explained in Sells et al. (Proc. Natl. Acad. Sci. U. S. A, 1987. Vol 84:1005-1009). HepG2.2.15 cells secrete Dane-like viral particles, produce HBV DNA, and produce the viral proteins, HBeAg and HBsAg.
# Although inhibition of HBV DNA, RNA and proteins can be determined in the presence of these inhibitors, we used the branched DNA assay due to its ability to quantitatively measure the level HBV DNA.
# Detection of HBV DNA. […]
# The level of bDNA present in the inhibitor-treated supernatant wells was measured using a Quantigene 2.0 bDNA assay kit (Affymetrix, Santa Clara, Calif.) with HBV specific custom probe set (genotype D ayw; DF-10739) and manufacturer's instructions after performing a proteinase K digestion in lysis. The plates were read using a Victor luminescence plate reader (PerkinElmer Model 1420 Multilabel counter) and the RLU data generated from each well was calculated as inhibition of the untreated control wells. […]
# [3] = system: HBV DNA; test: HBV DNA in culture supernatants of HBV-infected PHH by qPCR (Examples 15-17); assay type: cell-based, HBV genotype D; primary human hepatocytes; details: TDF 0.37 nM alone
# Procedure: The day PHH seeding date was defined as day 0.
# The PHH were infected with 400 HBV GE/cell of D type HBV on day 1.
# The test articles were further diluted with the culture medium to the final test concentrations.
# All the test articles were further diluted 100 times with the culture medium. The final concentration of DMSO in the culture medium was […].
# Four two-way combinations were performed on a 5×5 matrix, in triplicate plates. Transfection reagent was present in all wells.
# DNA in the culture supernatants harvested on days 8 was isolated with QIAamp 96 DNA Blood Kit (Qiagen-51162). For each sample, 100 μl of each culture supernatant was used to extract DNA. The DNA was eluted with 180 μl of AE. HBV DNA in the culture supernatants was quantified by quatitative PCR using well-established and commonly used procedures. Percent inhibition of HBV DNA was calculated with the formula below:
# % Inh. HBV DNA=[1−value of sample/AVG. value of Medium control]×100.
# Results of double combination studies were analyzed using MacSynergy II software (Prichard and Shipman, 1992).
smiles,measurement,setting,value
COCCCOc1cc2c(nc1OC)-c1cc(=O)c(C(=O)O)cn1[C@H](C(C)C)C2 [Compound 2],inhibition at 80 pM,[1],23.6%
same,Average percent inhibition versus negative control,[2],66.75%
"CC(C)OC(=O)OCOP(=O)(CO[C@H](C)Cn1cnc2c(N)ncnc21)OCOC(=O)OC(C)C.O=C(O)/C=C/C(=O)O [TDF, tenofovir disoproxil fumarate, reference compound]",AVERAGE % INHIBITION,[3],44.28%
